# According to PMC3978166, “A new unconventional HLA-A2-restricted epitope from HBV core protein elicits antiviral cytotoxic T lymphocytes” (Protein & Cell, 2014):
# Biological target: HLA-A*0201 molecules on T2 cells (human (endogenous in T2))
# Experiment: flow cytometry on cells
substance,measurement,value
HBc18–27 peptide,FI (fluorescent index),2.47
